Test results published in ChEMBL document CHEMBL1811876, “Antitumor agents 288: design, synthesis, SAR, and biological studies of novel heteroatom-incorporated antofine and cryptopleurine analogues as potent and selective antitumor agents” (J Med Chem, 2011).

Test system: HUVEC
Assay: Toxicity against HUVEC
Type: cell-based
Conditions: human

COc1ccc2c3c(c4cc(OC)c(OC)cc4c2c1)C[C@H]1CCCCN1C3 [CRYPTOPLEURINE]
GI50: 11 nM
